From publication PMC12193508

What was measured:
[1] = biological target: MJsHsp (sHsp of Methanocaldococcus jannaschii with T33M mutation) (Methanocaldococcus jannaschii) (UniProt Q57733); assay: AUC; sedimentation velocity at 40 °C, 0.1 mg/mL, 40,000 rpm, Rayleigh interference optics, c(s20,w) with SEDFIT; oligomers of one protein
[2] = biological target: MJsHsp (sHsp of Methanocaldococcus jannaschii with T33M mutation) (Methanocaldococcus jannaschii) (UniProt Q57733); assay: AUC; sedimentation velocity at 40 °C, 1.0 mg/mL, 40,000 rpm, Rayleigh interference optics, c(s20,w) with SEDFIT; oligomers of one protein

MJsHsp (sHsp of Methanocaldococcus jannaschii with T33M mutation) (from UniProt Q57733 1-147) (natural protein)
w, weight fraction of peak a (N 3) [1]: 7.3%
w, weight fraction of peak b (N 7) [1]: 5.7%
w, weight fraction of peak c (N 15) [1]: 4.8%
w, weight fraction of peak d (N 24) [1]: 35.7%
w, weight fraction of peak e (N 39) [1]: 30.7%
w, weight fraction of peak f (N 55) [1]: 10.6%
w, weight fraction of peak g (N 71) [1]: 5.2%
w, weight fraction of peak a (N 5) [2]: 2.1%
w, weight fraction of peak b (N 11) [2]: 1.7%
w, weight fraction of peak c (N 14) [2]: 2%
w, weight fraction of peak d (N 23) [2]: 38.7%
w, weight fraction of peak e (N 33) [2]: 8.8%
w, weight fraction of peak f (N 40) [2]: 27.6%
w, weight fraction of peak g (N 52) [2]: 12.1%
w, weight fraction of peak h (N 65) [2]: 7%
